{"source": "PubChem BioAssay AID743397", "about": "(Broad Institute, 2014)", "note": "Only a part is listed here, and it is no random draw. Activity calls are given as the source filed them.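 The calls were made as follows: active = mean replicate inhibition of at least 30% and at least 1% of replicates passing that level; inconclusive = only one of the two criteria is met; inactive = neither criterion is met.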", "data": [{"system": "Voltage-dependent L-type calcium channel subunit alpha-1D (CaV1.3) ICDI/IQ interaction", "assay": "Disruptors of the CACNA1D IQ motif to Ca2+-dependent inactivation inhibitor domain association, primary screening, Förster resonance energy transfer in intact living cells, one concentration (AID 743397);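 also: 0% = median of the neutral control wells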", "conditions": "HEK cells, CFP/YFP FRET ICDI-IQ, plate reader, 10 min; at 12.3 µM; stronger effect = higher value; percent FRET-ratio fall versus neutral wells", "values": [{"smiles": "COc1ccc(C(c2nnnn2C2CCCC2)N2CCC(n3c(=O)[nH]c4ccccc43)CC2)cc1", "note": "(stereo not given)", "inhibition": "inactive: -9.79%"}, {"smiles": "Cc1ccc(C(=O)NCC2(N(C)C)CCCCC2)o1", "inhibition": "inactive: -6.25%"}, {"smiles": "CCCOc1ccc(C(=O)NCC2(N(C)C)CCCCC2)cc1OC", "inhibition": "inactive: -4.34%"}, {"smiles": "COc1ccc(CN(CCCl)CCCl)cc1Cl", "inhibition": "inactive: -9.05%"}, {"smiles": "CN(C)c1cccc(C(=O)NCC2(N3CCCCC3)CCCCC2)c1", "inhibition": "inactive: -3.95%"}, {"smiles": "COc1cc(OC)c(C(=O)NCC2(N(C)C)CCCCC2)cc1OC", "inhibition": "inactive: -3.81%"}, {"smiles": "O=C(NCC1(N2CCOCC2)CCCCC1)c1cc(F)c(F)cc1Cl", "inhibition": "inactive: -5.76%"}, {"smiles": "CCC(c1nnnn1C(C)(C)C)N1CCC(n2c(=O)[nH]c3ccccc32)CC1", "note": "(stereo not given)", "inhibition": "inactive: -2.99%"}, {"smiles": "CCCCn1nnnc1C(c1ccnc2ccccc12)N1CCC(n2c(=O)[nH]c3ccccc32)CC1", "note": "(stereo not given)", "inhibition": "inactive: -8.9%"}, {"smiles": "O=C(NCC1(N2CCCCC2)CCCCC1)c1ccc(Cl)nc1", "inhibition": "inactive: -7%"}, {"smiles": "O=c1[nH]c2ccccc2n1C1CCN(C(c2ccccc2OC(F)(F)F)c2nnnn2C2CCCCC2)CC1", "note": "(stereo not given)", "inhibition": "inactive: -4.49%"}, {"smiles": "Cc1cc(C)cc(N(C(=O)c2ccccc2)C2CCN(C(=O)OC(C)(C)C)CC2)c1", "inhibition": "inactive: -17.8%"}, {"smiles": "O=C(NCC1(N2CCCCC2)CCCCC1)c1ccc(Cl)s1", "inhibition": "inactive: -15.3%"}, {"smiles": "N#CC1(Nc2ccccc2)CCN(Cc2ccccc2)CC1", "inhibition": "inactive: -4.58%"}, {"smiles": "O=c1[nH]c2ccccc2n1C1CCN(C(c2cc3ccccc3o2)c2nnnn2C2CCCCC2)CC1", "note": "(stereo not given)", "inhibition": "inactive: -6.63%"}, {"smiles": "O=C(OC1CN2CCC1CC2)C1c2ccccc2Oc2ccccc21", "note": "(stereo not given)", "inhibition": "inactive: -6.61%"}, {"smiles": "COc1ccc(Cl)cc1C(=O)NCC1(N2CCOCC2)CCCCC1", "inhibition": "inactive: -2.22%"}, {"smiles": "CCOC(=O)N1CCC(Nc2ccc(OC)cc2)CC1", "inhibition": "inactive: -4.14%"}, {"smiles": "CCCCn1nnnc1C(c1ccc(OC)cc1)N1CCC(n2c(=O)[nH]c3ccccc32)CC1", "note": "(stereo not given)", "inhibition": "inactive: -5.93%"}, {"smiles": "COc1ccc(C(=O)NCC2(N3CCCCC3)CCCCC2)cc1", "inhibition": "inactive: -5.71%"}, {"smiles": "COc1ccc(C(=O)NCC2(N3CCCCC3)CCCCC2)c(OC)c1OC", "inhibition": "inactive: 6.82%"}, {"smiles": "CC(C)(C)OC(=O)N1CCC(N(C(=O)c2ccccc2)c2ccc(F)cc2)CC1", "inhibition": "inactive: -15.9%"}, {"smiles": "CCC(c1nnnn1C1CCCC1)N1CCC(n2c(=O)[nH]c3ccccc32)CC1", "note": "(stereo not given)", "inhibition": "inactive: -3.09%"}, {"smiles": "O=C(NCC1(N2CCCCC2)CCCCC1)c1ccc(=O)[nH]c1", "inhibition": "inactive: -2.8%"}, {"smiles": "CCCCn1nnnc1C(CC)N1CCC(n2c(=O)[nH]c3ccccc32)CC1", "note": "(stereo not given)", "inhibition": "inactive: -4.38%"}, {"smiles": "O=C(NCC1(N2CCCCC2)CCCCC1)c1cccs1", "inhibition": "inactive: -5.5%"}, {"smiles": "CCCCn1nnnc1C(c1cccs1)N1CCC(n2c(=O)[nH]c3ccccc32)CC1", "note": "(stereo not given)", "inhibition": "inactive: -2.67%"}, {"smiles": "CSc1ccccc1C(=O)NCC1(N2CCCCC2)CCCCC1", "inhibition": "inactive: -2.65%"}, {"smiles": "Cc1cccc(NC2(C#N)CCN(Cc3ccccc3)CC2)c1", "inhibition": "inactive: -6.18%"}, {"smiles": "O=c1[nH]c2ccccc2n1C1CCN(C(c2ccccc2)c2nnnn2C2CCCCC2)CC1", "note": "(stereo not given)", "inhibition": "inactive: -6.09%"}, {"smiles": "CCOC(=O)N1CCC(Nc2cccc(C)c2)CC1", "inhibition": "inactive: -2.3%"}, {"smiles": "COc1cc(C(=O)NCC2(N(C)C)CCCCC2)ccc1OC(F)F", "inhibition": "inactive: -20.6%"}, {"smiles": "O=c1[nH]c2ccccc2n1C1CCN(C(c2cccc3ccccc23)c2nnnn2C2CCCC2)CC1", "note": "(stereo not given)", "inhibition": "inactive: -5.52%"}, {"smiles": "CC(C)(C)n1nnnc1C(c1ccccc1)N1CCC(n2c(=O)[nH]c3ccccc32)CC1", "note": "(stereo not given)", "inhibition": "inactive: -9.49%"}, {"smiles": "CCOc1ccc(C)cc1CN(CCCl)CCCl", "inhibition": "inactive: -12.1%"}, {"smiles": "CCCCOc1ccc(C(=O)NCC2(N3CCOCC3)CCCCC2)cc1", "inhibition": "inactive: -2.68%"}, {"smiles": "O=P1(N(CCCl)CCCl)SCCCS1", "inhibition": "inactive: -9.31%"}, {"smiles": "O=C(NCC1(N2CCCCC2)CCCCC1)c1ccc(F)cc1", "inhibition": "inactive: -7.34%"}, {"smiles": "CCOC(=O)N1CCC(Nc2ccc(F)cc2)CC1", "inhibition": "inactive: -4.3%"}, {"smiles": "COc1ccc(NC2CCN(CCc3ccccc3)CC2)c(OC)c1", "inhibition": "inactive: -3.52%"}]}]}
